Experimental data taken from ChEMBL document CHEMBL1127535, “Molecular similarity, quantitative chirality, and QSAR for chiral drugs” (J Med Chem, 1994).

By UniProt entry, the sequences of proteins in these tests, tags left out.
UniProt P61169, whole entry: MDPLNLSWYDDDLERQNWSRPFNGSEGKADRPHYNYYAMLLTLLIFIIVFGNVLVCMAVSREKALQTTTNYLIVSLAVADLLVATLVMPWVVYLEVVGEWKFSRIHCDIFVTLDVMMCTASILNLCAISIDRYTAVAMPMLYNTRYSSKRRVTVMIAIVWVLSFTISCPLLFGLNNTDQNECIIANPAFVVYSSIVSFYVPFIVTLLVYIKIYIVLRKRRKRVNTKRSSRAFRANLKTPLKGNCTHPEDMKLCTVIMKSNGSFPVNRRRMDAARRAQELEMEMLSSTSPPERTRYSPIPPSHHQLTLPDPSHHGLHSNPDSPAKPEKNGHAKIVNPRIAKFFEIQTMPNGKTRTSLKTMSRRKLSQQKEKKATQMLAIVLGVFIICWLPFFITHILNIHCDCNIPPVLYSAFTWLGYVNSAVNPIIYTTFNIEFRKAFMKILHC
UniProt Q9R0C9, whole entry: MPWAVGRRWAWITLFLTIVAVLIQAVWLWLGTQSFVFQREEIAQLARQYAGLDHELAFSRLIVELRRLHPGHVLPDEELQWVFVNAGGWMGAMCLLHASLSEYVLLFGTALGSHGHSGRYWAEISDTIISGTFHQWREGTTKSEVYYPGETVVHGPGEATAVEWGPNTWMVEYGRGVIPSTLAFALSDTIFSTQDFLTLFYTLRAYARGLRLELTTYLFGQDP

Assays:
[1] = molecular target: D(2) dopamine receptor (Rattus norvegicus) (UniProt P61169); assay: Displacement of spiperone from dopamine receptor D2 of rat brain membrane
[2] = molecular target: Sigma non-opioid intracellular receptor 1 (Rattus norvegicus) (UniProt Q9R0C9); assay: Displacement of (+)-3PPP from sigma receptor of rat brain membrane

CN1CCC[C@@H](c2cccc(O)c2)C1 gave a Log IC50 [1] of 0.29 µM and a Log IC50 [2] of 0.28 µM.
